The text below walks through data of patent EP0979827A1, “Peptides having tachykinin antagonist activity, a process for preparation thereof and pharmaceutical compositions comprising the same” (Boehringer Ingelheim Pharma KG, priority 1992, dated 1994).

Amino acid sequences for entries named in this document (tags omitted).
UniProt P25103, whole entry: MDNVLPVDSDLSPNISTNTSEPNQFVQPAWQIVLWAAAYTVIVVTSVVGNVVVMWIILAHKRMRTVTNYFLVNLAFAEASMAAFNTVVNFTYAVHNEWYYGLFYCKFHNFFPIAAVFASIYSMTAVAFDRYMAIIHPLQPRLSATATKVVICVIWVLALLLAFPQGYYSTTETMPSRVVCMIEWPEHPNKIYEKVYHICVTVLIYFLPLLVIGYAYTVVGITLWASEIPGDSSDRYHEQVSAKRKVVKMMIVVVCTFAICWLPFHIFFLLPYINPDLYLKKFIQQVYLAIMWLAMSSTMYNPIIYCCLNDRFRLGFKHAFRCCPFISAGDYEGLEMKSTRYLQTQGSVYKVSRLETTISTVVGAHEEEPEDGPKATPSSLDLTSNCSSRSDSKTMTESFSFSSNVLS

pIC50: −log10 of the molar value.

The target of this assay is NK1-Rezeptor (Substanz P-Rezeptor) (Homo sapiens, UniProt P25103). The assay can be described thus: Receptor affinity for the NK1 receptor: displacement of 125I-labelled substance P on IM-9 cells. Conditions: read-out: IC50-Werte; humane Lymphoblastoma-Zellen (IM-9) mit klonierten NK1-Rezeptoren; Verdrängung von 125J-markierter Substanz P; tested form: free base. The method, then: Die Rezeptoraffinität zum NK1-Rezeptor (Substanz P-Rezeptor) wurde an humanen Lymphoblastoma-Zellen (IM-9) mit klonierten NK1-Rezeptoren bestimmt, wobei die Verdrängung von ^125J-markierter Substanz P gemessen wird. Die so erhaltenen IC50-Werte betragen: Verb. A : 60 nM Verb. B : 21 nM Verb. C : 90 nM Verb. D : 45 nM [drawing 26]
Background: Loss of bound radioactivity is the signal in a displacement assay; it reports binding, not function.

In general, pIC50 refers to −log10 of the IC50, conventionally taken in molar units.

For `CN(Cc1ccccc1)C(=O)[C@H](CCc1ccccc1)NC(=O)[C@@H]1C[C@@H](O)CN1C(=O)c1c[nH]c2ccccc12`, the negative-log IC50 (pIC50) is 7.05.
